# Data published in US20230183309A1 (Dana-Farber Cancer Institute, Inc., priority 2019, published 2023).
# Amino acid sequences for entries named in this document (tags omitted). Residues count along the entry.
# UniProt P06873, 106-384: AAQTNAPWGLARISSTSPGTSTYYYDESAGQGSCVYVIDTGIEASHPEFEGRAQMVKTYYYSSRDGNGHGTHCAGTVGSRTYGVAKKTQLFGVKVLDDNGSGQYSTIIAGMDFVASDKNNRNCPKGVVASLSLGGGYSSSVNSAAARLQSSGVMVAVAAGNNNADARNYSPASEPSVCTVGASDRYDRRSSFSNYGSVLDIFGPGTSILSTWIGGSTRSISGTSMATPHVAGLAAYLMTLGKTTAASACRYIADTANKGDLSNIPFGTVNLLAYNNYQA
# What was measured:
# proteinase K = target: T1, proteinase K (Parengyodontium album, UniProt P06873); format: in vitro ADME; conditions: 50 mM Tris-HCl, pH 7.4, peptides have the A8Aib substitution, read-out: t½ (half-life), proteinase K digestion, intact peptide by LCMS
# T1 construct: purchased New England Biolabs
# B6 mice = assay: Glucose tolerance test in fasted mice; format: in vivo, mouse; conditions: 10 nmol/kg IP, glucose 2 g/kg IP 30 minutes later
# Method: To evaluate whether the relative proteolytic stability of SAH-GLP-1(16,23,30) translated into a functional benefit in vivo, glucose tolerance tests in mice were performed. Mice (n=8 per arm) were fasted overnight and administered the corresponding panel of peptides at 10 nmol/kg intraperitoneally followed by a glucose bolus (2 g/kg) 30 minutes later, and then serial serum glucose monitoring was performed over time.
# In vivo efficacy testing of SAH-GLP-1 peptides. Male B6 and db/db mice (JAX 000697) at 10-12 weeks of age were housed (5 mice/cage) at a constant room temperature of 24° C. on a normal day-light cycle and provided a standard diet ad libitum. After one week of acclimatization, B6 mice (n=8 per treatment arm) were fasted for 16 hours overnight and the following morning baseline blood glucose levels were measured (Onetouch), followed by intraperitoneal (IP) injection of vehicle (saline) or the indicated peptide (10 nmol/kg). Thirty minutes later, the mice were treated with a bolus IP injection of glucose (2 g/kg, 20% aqueous solution), followed by serial blood glucose monitoring at 0, 15, 30, 60, and 120 minutes. To evaluate the comparative anti-hyperglycemic effects of peptides in db/db mice (n=8 per treatment arm), vehicle (saline) or the indicated peptide (10 nmol/kg) was injected IP and blood glucose levels monitored at 0, 15, 30, 60, and 720 minutes.
SMILES,half-life (proteinase K),control of induced hyperglycemia in glucose tolerance test (B6 mice)
"CC[C@H](C)[C@H](NC(=O)[C@H](Cc1ccccc1)NC(=O)[C@H](CCC(=O)O)NC(=O)[C@H](CCCCN)NC(=O)[C@H](C)NC(=O)[C@H](C)NC(=O)[C@]1(C)CCCC=CCCCCCC[C@@](C)(NC(=O)[C@H](CC(=O)O)NC(=O)[C@H](CO)NC(=O)[C@@H](NC(=O)[C@H](Cc2ccccc2)NC(=O)[C@@H](NC(=O)CNC(=O)[C@H](CCC(=O)O)NC(=O)[C@H](C)NC(=O)[C@@H](N)Cc2c[nH]cn2)[C@@H](C)O)[C@@H](C)O)C(=O)N[C@@H](CO)C(=O)N[C@@H](CO)C(=O)N[C@@H](Cc2ccc(O)cc2)C(=O)N[C@@H](CC(C)C)C(=O)N[C@@H](CCC(=O)O)C(=O)NCC(=O)N1)C(=O)N[C@@H](C)C(=O)N[C@@H](Cc1c[nH]c2ccccc12)C(=O)N[C@@H](CC(C)C)C(=O)N[C@H](C(=O)N[C@@H](CCCCN)C(=O)NCC(=O)N[C@@H](CCCNC(=N)N)C(N)=O)C(C)C [SAH-GLP-1(16,23)]",2 h,greatest benefit
"CC[C@H](C)[C@@H]1NC(=O)[C@H](Cc2ccccc2)NC(=O)[C@H](CCC(=O)O)NC(=O)[C@H](CCCCN)NC(=O)[C@H](C)NC(=O)[C@H](C)NC(=O)[C@](C)(NC(=O)CNC(=O)[C@H](CCC(=O)O)NC(=O)[C@H](CC(C)C)NC(=O)[C@H](Cc2ccc(O)cc2)NC(=O)[C@H](CO)NC(=O)[C@H](CO)NC(=O)[C@@H](NC(=O)[C@H](CC(=O)O)NC(=O)[C@H](CO)NC(=O)[C@@H](NC(=O)[C@H](Cc2ccccc2)NC(=O)[C@@H](NC(=O)CNC(=O)[C@H](CCC(=O)O)NC(=O)[C@H](C)NC(=O)[C@@H](N)Cc2c[nH]cn2)[C@@H](C)O)[C@@H](C)O)C(C)C)CCCCCCC=CCCC[C@@](C)(C(=O)N[C@@H](Cc2c[nH]c3ccccc23)C(=O)N[C@@H](CC(C)C)C(=O)N[C@H](C(=O)N[C@@H](CCCCN)C(=O)NCC(=O)N[C@@H](CCCNC(=N)N)C(N)=O)C(C)C)NC1=O [SAH-GLP-1(23,30)]",,least effective
